For one compound, IC50 results are on record in ChEMBL document CHEMBL3763070, “Development of CINPA1 analogs as novel and potent inverse agonists of constitutive androstane receptor” (Eur J Med Chem, 2016).

pIC50: −log10 of the molar value.

The target of the assay is T1, Nuclear receptor subfamily 1 group I member 3 (Homo sapiens, UniProt Q14994).
T1 sequence (Q14994 whole entry): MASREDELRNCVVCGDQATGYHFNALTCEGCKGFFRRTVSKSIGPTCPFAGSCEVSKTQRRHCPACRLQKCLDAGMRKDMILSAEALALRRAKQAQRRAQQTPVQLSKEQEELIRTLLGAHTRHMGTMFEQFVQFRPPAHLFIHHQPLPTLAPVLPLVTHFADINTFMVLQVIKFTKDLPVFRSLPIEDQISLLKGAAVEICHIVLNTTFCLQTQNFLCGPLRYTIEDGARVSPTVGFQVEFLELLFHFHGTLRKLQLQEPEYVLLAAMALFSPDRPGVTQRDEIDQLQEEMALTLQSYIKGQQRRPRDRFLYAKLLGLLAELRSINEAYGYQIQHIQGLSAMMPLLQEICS
The assay is described as follows: Inverse agonist activity at GST tagged-human CAR-LBD assessed as reduction in fluorescein-PGC1 alpha coactivator recruitment after 1 hr by TR-FRET assay. A general note: Time-resolved FRET reads energy transfer from a long-lived donor to a nearby acceptor.

For the compound `CCOC(=O)Nc1ccc2c(c1)N(C(=O)CN1C3CCC1CC3)c1ccccc1CC2`, the pIC50 is 5.85.

Broadly, the pIC50 is the IC50 on a negative log10 scale, so that one unit is a factor of ten.
